Measured values as given in ChEMBL document CHEMBL1124682, “Quaternary salts of 2-[(hydroxyimino)methyl]imidazole. 3. Synthesis and evaluation of (alkenyloxy)-, (alkynyloxy)-, and (aralkyloxy)methyl quaternarized 2-[(hydroxyimino)methyl]-1-alkylimidazolium halides as reactivators and therapy for soman intoxication” (1989).

Protein sequences, listed by entry. Tags and fused reporters are not part of them. Lines headed by an entry give the natural chain unless they say otherwise; changes in a name come on top.
UniProt P22303: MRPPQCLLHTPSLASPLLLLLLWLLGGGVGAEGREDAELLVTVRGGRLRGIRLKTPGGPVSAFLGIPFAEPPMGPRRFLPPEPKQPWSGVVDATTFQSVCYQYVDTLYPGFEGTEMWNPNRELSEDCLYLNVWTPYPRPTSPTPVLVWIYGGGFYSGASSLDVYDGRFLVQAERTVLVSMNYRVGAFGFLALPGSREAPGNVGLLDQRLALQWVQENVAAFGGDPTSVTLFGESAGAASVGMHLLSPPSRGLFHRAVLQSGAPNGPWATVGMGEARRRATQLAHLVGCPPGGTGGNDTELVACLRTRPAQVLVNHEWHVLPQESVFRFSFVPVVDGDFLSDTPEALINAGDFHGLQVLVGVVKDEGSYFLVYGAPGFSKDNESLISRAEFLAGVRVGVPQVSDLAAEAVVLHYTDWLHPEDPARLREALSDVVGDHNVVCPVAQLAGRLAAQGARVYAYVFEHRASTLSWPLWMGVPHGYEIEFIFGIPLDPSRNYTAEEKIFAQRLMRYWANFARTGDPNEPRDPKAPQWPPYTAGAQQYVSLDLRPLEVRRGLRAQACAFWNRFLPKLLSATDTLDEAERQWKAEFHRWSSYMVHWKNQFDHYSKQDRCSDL

Legend:
[1] = molecular target: Acetylcholinesterase (Homo sapiens) (UniProt P22303); experiment: Effective rate constant for reactivation of AchE in human erythrocytes
[2] = molecular target: Acetylcholinesterase (Homo sapiens) (UniProt P22303); experiment: Bimolecular rate constant for reactivation of AchE in human erythrocytes
[3] = molecular target: Acetylcholinesterase (Homo sapiens) (UniProt P22303); experiment: Kinetic constant for formation of the inhibited enzyme/oximate complex in human erythrocytes
[4] = molecular target: Acetylcholinesterase (Homo sapiens) (UniProt P22303); experiment: Kinetic constant for the transformation of the [inhibited enzyme/oximate] complex to active enzyme in human erythrocytes
[5] = molecular target: Acetylcholinesterase (Homo sapiens) (UniProt P22303); experiment: Bimolecular rate constant for reactivation of acetylcholinesterase in human
[6] = molecular target: Acetylcholinesterase (Homo sapiens) (UniProt P22303); experiment: Kinetic constant for effect on transformation of the [inhibited enzyme/oximate] complex to active enzyme in human
[7] = molecular target: Acetylcholinesterase (Homo sapiens) (UniProt P22303); experiment: Effective rate constant for reactivation of Acetylcholinesterase in human
[8] = molecular target: Acetylcholinesterase (Homo sapiens) (UniProt P22303); experiment: Effective rate constant for reactivation of AchE in human
[9] = molecular target: Acetylcholinesterase (Homo sapiens) (UniProt P22303); experiment: Effective rate constant for reactivation of acetylcholinesterase in human
[10] = molecular target: Acetylcholinesterase (Homo sapiens) (UniProt P22303); experiment: Kinetic constant for formation of the inhibited enzyme/oximate complex in human

Compound: C#CC(C)(C)OC[n+]1ccn(C)c1/C=N/O
- kHOX [1]: 1.97 M⁻¹ s⁻¹
- kOX [2]: 6.92 M⁻¹ s⁻¹
- Kr [3]: 312000 M
- kr [4]: 13000 min⁻¹

Compound: C#CC(C)C(C)OC[n+]1ccn(C)c1/C=N/O (configuration not stated)
- kHOX [1]: 2.42 M⁻¹ s⁻¹
- kOX [2]: 8.52 M⁻¹ s⁻¹
- Kr [3]: 44000 M
- kr [4]: 2250 min⁻¹

Compound: C#CCCOC[n+]1ccc(/C=N/O)cc1
- Kr [3]: 503000 M
- kOX [5]: 25.8 M⁻¹ s⁻¹
- kr [6]: 77700 min⁻¹
- kHOX [7]: 7.33 M⁻¹ s⁻¹

Compound: C#CCCCOC[n+]1ccn(C)c1/C=N/O
- kHOX [1]: 3.57 M⁻¹ s⁻¹
- kOX [2]: 12.6 M⁻¹ s⁻¹
- Kr [3]: 67000 M
- kr [4]: 5060 min⁻¹

Compound: C#CCCCC[n+]1cn(C)c(/C=N/O)n1
- Kr [3]: 369000 M
- kOX [5]: 3.3 M⁻¹ s⁻¹
- kr [6]: 7300 min⁻¹
- kHOX [7]: 0.933 M⁻¹ s⁻¹

Compound: C#CC(CCC)OC[n+]1ccn(C)c1/C=N/O (configuration not stated)
- kHOX [1]: 3.88 M⁻¹ s⁻¹
- kOX [2]: 13.6 M⁻¹ s⁻¹
- Kr [3]: 81000 M
- kr [4]: 6600 min⁻¹

Compound: C#CC1(OC[n+]2ccn(C)c2/C=N/O)CCCC1
- kHOX [1]: 5.78 M⁻¹ s⁻¹
- kOX [2]: 20.3 M⁻¹ s⁻¹
- Kr [3]: 91000 M
- kr [4]: 11100 min⁻¹

Compound: CC#CCCOC[n+]1ccn(C)c1/C=N/O
- kHOX [1]: 1.48 M⁻¹ s⁻¹
- kOX [2]: 5.62 M⁻¹ s⁻¹
- Kr [3]: 131000 M
- kr [4]: 4420 min⁻¹

Compound: C#CCCCC[n+]1ccn(COC)c1/C=N/O
- kHOX [1]: 2.08 M⁻¹ s⁻¹
- kOX [2]: 7.3 M⁻¹ s⁻¹
- Kr [3]: 309000 M
- kr [4]: 13500 min⁻¹

Compound: C#CCOC[n+]1ccn(C)c1/C=N/O
- kHOX [1]: 2.03 M⁻¹ s⁻¹
- kOX [2]: 7.13 M⁻¹ s⁻¹
- Kr [3]: 474000 M
- kr [4]: 20300 min⁻¹

Compound: C#CCCOC[n+]1ccn(C(C)(C)C)c1/C=N/O
- kOX [2]: 2.22 M⁻¹ s⁻¹
- Kr [3]: 2.17e+06 M
- kHOX [8]: 0.633 M⁻¹ s⁻¹
- kr [4]: 29000 min⁻¹

Compound: C#CCCOC[n+]1ccn(C)c1C
- kHOX [1]: 0 M⁻¹ s⁻¹
- kOX [2]: 0 M⁻¹ s⁻¹
- Kr [3]: 0 M
- kr [4]: 0 min⁻¹

Compound: C#CCC(CCC)OC[n+]1ccn(C)c1/C=N/O (configuration not stated)
- kHOX [1]: 1.85 M⁻¹ s⁻¹
- kOX [2]: 6.52 M⁻¹ s⁻¹
- Kr [3]: 36000 M
- kr [4]: 1420 min⁻¹

Compound: C#CCCOC[n+]1ccn(C)c1/C=N/O
- kHOX [1]: 2.08 M⁻¹ s⁻¹
- kOX [2]: 7.22 M⁻¹ s⁻¹
- Kr [3]: 82000 M
- kr [4]: 3450 min⁻¹

Compound: C#CC(C)OC[n+]1ccn(C)c1/C=N/O (configuration not stated)
- kHOX [1]: 2.93 M⁻¹ s⁻¹
- kOX [2]: 10.3 M⁻¹ s⁻¹
- Kr [3]: 161000 M
- kr [4]: 9960 min⁻¹

Compound: C#CCCCC[n+]1ccn(C)c1/C=N/O
- kOX [5]: 22.4 M⁻¹ s⁻¹
- kr [6]: 13800 min⁻¹
- kHOX [9]: 6.4 M⁻¹ s⁻¹
- Kr [10]: 102000 M

Compound: C#CCCCC[n+]1ccn(C(C)(C)C)c1/C=N/O
- kOX [2]: 5.38 M⁻¹ s⁻¹
- Kr [3]: 189000 M
- kHOX [8]: 1.53 M⁻¹ s⁻¹
- kr [4]: 6110 min⁻¹

Compound: C#CC(CC)OC[n+]1ccn(C)c1/C=N/O (configuration not stated)
- kHOX [1]: 2.33 M⁻¹ s⁻¹
- kOX [2]: 8.2 M⁻¹ s⁻¹
- Kr [3]: 404000 M
- kr [4]: 19900 min⁻¹

Compound: CC#CC(C)OC[n+]1ccn(C)c1/C=N/O (configuration not stated)
- kHOX [1]: 1.68 M⁻¹ s⁻¹
- kOX [2]: 5.88 M⁻¹ s⁻¹
- Kr [3]: 405000 M
- kr [4]: 14300 min⁻¹

Compound: C#CCCCC[n+]1ccc(/C=N/O)cc1
- Kr [3]: 163000 M
- kOX [5]: 29.7 M⁻¹ s⁻¹
- kr [6]: 29000 min⁻¹
- kHOX [7]: 8.45 M⁻¹ s⁻¹

Compound: C#CC1CCCCC1OC[n+]1ccn(C)c1/C=N/O (configuration not stated)
- kHOX [1]: 4.05 M⁻¹ s⁻¹
- kOX [2]: 14.2 M⁻¹ s⁻¹
- Kr [3]: 86000 M
- kr [4]: 7390 min⁻¹

Compound: CC#CC(C)(C)OC[n+]1ccn(C)c1/C=N/O
- kHOX [1]: 0.85 M⁻¹ s⁻¹
- kOX [2]: 3.03 M⁻¹ s⁻¹
- Kr [3]: 254000 M
- kr [4]: 4620 min⁻¹

Compound: C#CCC(C)OC[n+]1ccn(C)c1/C=N/O (configuration not stated)
- kHOX [1]: 2.77 M⁻¹ s⁻¹
- kOX [2]: 9.72 M⁻¹ s⁻¹
- Kr [3]: 84000 M
- kr [4]: 4890 min⁻¹

Compound: C#CCCCC[n+]1ccccc1/C=N/O
- Kr [3]: 119000 M
- kOX [5]: 16.3 M⁻¹ s⁻¹
- kr [6]: 11700 min⁻¹
- kHOX [7]: 4.65 M⁻¹ s⁻¹

Compound: C[n+]1ccccc1C=NO
- kHOX [1]: 8.03 M⁻¹ s⁻¹
